The subject of the experiment is Staphylococcus aureus. Kind of experiment: Antibacterial activity against Staphylococcus aureus assessed as growth inhibition after 24 hrs by broth microdilution assay. It counts as functional. In general terms: Broth dilution looks for growth in wells or tubes with falling amounts of substance.

For GENTAMICIN, the MIC (in general, the smallest concentration in the dilution series that meets the test's criterion for growth inhibition) was found to be 0.1 µM.
